We go through one molecule from patent US20210290732A1, “GLP-1R and GCGR Agonists, Formulations, and Methods of Use” (Spitfire Pharma LLC, priority 2020, published 2021).

Common to all, as to assay type: in vitro ADME
Data set [1] is described as follows: plasma protein binding by ultracentrifugation, rat plasma. The conditions noted are these: pH 7.4, 15000 ng/mL, 37° C., 6 hours. An excerpt: (§1) Such non-covalent binding to albumin is anticipated to slow down the degradation of peptide in plasma and results in decreased renal clearance. […] Pooled plasma was obtained from at least three Sprague Dawley rats, beagle dogs, and cynomolgus monkeys. Pooled human plasma was obtained from three human males (that reportedly had not taken any medication in the previous 7 days before collection). K2EDTA was used as the anticoagulant. The pH of each pool of plasma was adjusted, if needed, to approximately pH 7.4 with hydrochloric acid or sodium hydroxide. Ultracentrifugation was performed using polycarbonate ultracentrifugation tube placed in a S80 AT2 rotor at 37° C. at 357000×g for 6 hours to achieve separation of PUC (supernatant) from plasma proteins. After centrifugation, the PUC was analyzed by LC MS for the calculation of protein binding. Protein Binding was evaluated as Percent unbound=(Cu/Co)×100 and Percent bound=100-percent unbound where Co is the concentration of test article in plasma prior to ultracentrifugation (ng/mL) and Cu is the concentration of test article in plasma in the ultracentrifugate (ng/mL).

Data set [2] deals with plasma proteins of rat. The data set is described as above.
From the text: as §1

For data set [3], the system named is plasma proteins. Described as above. As to conditions: Sprague Dawley, pooled plasma, pH 7.4, 15000 ng/mL, 37° C., 6 hours, read-out: mean percent protein binding (converted).
From the text: as §1

Data set [4] relates to plasma proteins of dog. In words: plasma protein binding by ultracentrifugation, dog plasma.
From the text: as §1

The test system of data set [5] is plasma proteins. The description is as above. As to conditions: beagle, pooled plasma, pH 7.4, 15000 ng/mL, 37° C., 6 hours, read-out: mean percent protein binding (converted).
From the text: as §1

The mark [6] stands for this setting: 15000 ng/mL, 37° C., 6 hours, replicate, listed as ALT-801.
[7] abbreviates: 37° C., 6 hours, replicate, listed as ALT-801.

Values joined by “and” are separate entries in the source; they are usually repeats but may differ in a detail not shown here. Equal values may be shown once.

`CC[C@H](C)[C@H](NC(=O)[C@H](Cc1ccccc1)NC(=O)[C@H](CCC(=O)O)NC(=O)[C@@H]1CCCCNC(=O)CC[C@H](NC(=O)[C@H](CC(=O)O)NC(=O)[C@H](CC(C)C)NC(=O)[C@H](Cc2ccc(O)cc2)NC(=O)[C@H](CCCCN)NC(=O)[C@H](CO)NC(=O)[C@H](Cc2ccc(O)cc2)NC(=O)[C@H](CC(=O)O)NC(=O)[C@H](CO)NC(=O)[C@@H](NC(=O)[C@H](Cc2ccccc2)NC(=O)[C@@H](NC(=O)CNC(=O)[C@H](CCC(N)=O)NC(=O)C(C)(C)NC(=O)[C@@H](N)Cc2c[nH]cn2)[C@@H](C)O)[C@@H](C)O)C(=O)N[C@@H](CCCCNC(=O)[C@H]2O[C@@H](OCCCCCCCCCCCCCCCCCC(=O)O)[C@H](O)[C@@H](O)[C@@H]2O)C(=O)N[C@@H](C)C(=O)N[C@@H](C)C(=O)N1)C(=O)N[C@@H](CCC(N)=O)C(=O)N[C@@H](Cc1c[nH]c2ccccc12)C(=O)N[C@@H](CC(C)C)C(=O)N[C@@H](CC(C)C)C(=O)N[C@@H](CCC(N)=O)C(=O)N[C@H](C(N)=O)[C@@H](C)O` [SEQ ID NO: 1] displayed a fraction unbound in data set [1] of 0.00241. Also, the “Initial Conc, Mean” value in data set [2] (15000 ng/mL nominal) was 5980 ng/mL; in data set [4] (15000 ng/mL nominal), 6070 ng/mL. Further, the “Percentage of ALT-801 Bound, Mean” value is on record as 99.8% in data set [2] (15000 ng/mL, 37° C., 6 hours) and 99.8% in data set [4] (15000 ng/mL, 37° C., 6 hours). In addition, the “Percentage of ALT-801 Bound” value was 99.8% (2×) and 99.7% in data set [2] (setting [6]); 99.7% and 99.8% and 99.9% in data set [4] (setting [6]). In addition, the “Percentage of ALT-801 Unbound” value in data set [2] (setting [6]) is 0.204% and 0.184% and 0.334%; in data set [4] (setting [6]), 0.265% and 0.223% and 0.126%. Besides, the “Ultracentrifugate, Mean” value in data set [2] (37° C., 6 hours) is recorded as 14.4 ng/mL; in data set [4] (37° C., 6 hours), 12.4 ng/mL. For the same molecule, the “Ultracentrifugate, Rep” value in data set [2] (setting [7]) was 12.2 ng/mL and 11.0 ng/mL and 20.0 ng/mL; in data set [4] (setting [7]), 16.1 ng/mL and 13.5 ng/mL and 7.62^b ng/mL. In addition, the “Percent of Theoretical” value in data set [2] (initial conc vs 15000 ng/mL) turned out to be 39.9%; in data set [4] (initial conc vs 15000 ng/mL) it was 40.4%. The fraction unbound at 6 h, 15000 ng/mL in data set [3] and in data set [5] was 0.002 throughout. The “Initial Conc, Rep” value in data set [4] (15000 ng/mL nominal, replicate, listed as ALT-801) is 5950 ng/mL and 6180 ng/mL and 7270 ng/mL.
